Experimental data taken from patent publication US20250009755A1, “COMPOSITIONS AND METHODS FOR THE TREATMENT OF OCULAR DISEASES AND INJURIES” (Ohio State Innovation Foundation, priority 2021, published 2025).
Values joined by “and” are separate entries in the source; they are usually repeats but may differ in a detail not shown here. Equal entries are not always repeated. “Also recorded” adds a separate entry of the source.

What was measured:
phospho-p38 MAPK = phospho-p38 MAPK ELISA in ARPE-19 cells; type: cell-based, human; conditions: 500 μg/mL heme-albumin
Procedure: (§1) ELISA Quantification. The ability of here-albumin to induce expression of HO-1, under baseline and stressed conditions, was quantified using a heme oxygenase 1 ELISA kit. Heme-albumin's impact on IL-1β and activated p38 MAPK in retinal cells were also measured. Briefly, ARPE-19 cells were seeded in 6-well plates at 1×10^6 cells/well (n=6). Cells were allowed to adhere 24 hours before aspiration of media and treatment with either 500 μg/mL heme-albumin, 100 μM H2O2 or co-treated with heme-albumin and 100 μM H2O2. Fresh media was used as a basal control. Incubation with treatment was continued for 24 hours before analysis. Cell lysis and ELISA were performed via manufacturer's recommendation.
Heme-Albumin increases phospho-p38 MAPK Expression. Induction of HO-1 and production of CO by-product is theorized to provide anti-inflammatory relief through cytokine regulation through the p38 MAPK pathway. […] Compared to basal condition control, heme-albumin caused a 200% increase in activated protein expression.

ARPE-19 cells [1] = test: Cell viability assay (MTS) with ARPE-19 cells; type: cell-based; conditions: ARPE-19, 24-hour incubation
Excerpt: PDA NPs have been synthesized and loaded with anti-VEGF (149 kDa) and model therapeutic bovine serum albumin (BSA) (66.5 kDa), which has similar properties to heme-HSA (67 kDa). These protein-loaded NPs are 160 nm in diameter, an optimal size for intraocular injection through a small needle (FIG. 6A). These NPs were easily injected into ex vivo porcine eyes obtained from a local abattoir through a 31 G needle. […] In preliminary studies, in vitro release of model protein BSA and anti-VEGF (bevacizumab) were evaluated. Drug loading capacity was of 35-40% of the NPs. NPs sustained release of BSA 2-6 months and anti-VEGF at least 3 months in vitro, as determined by BCA and enzyme-linked immunosorbent assays (ELISA). Therapeutics were not completely released from NPs at low levels of oxidative stress at the end of the study (FIG. 7) In vitro cytotoxicity was determined by MTS assay (FIG. 8) and live/dead assay with human retinal pigment epithelial cells (ARPE-19).
Cell Viability Assay. […] The cells were stained for 3 hours before measurement of optical density at 490 nm with Varioskan™ Lux multimode microplate reader using SkanIT software (Thermo Fisher Scientific, Waltham, MA).
Cytotoxicity of Heme-Albumin, Heme-Albumin loaded PDA NPs, and Blank NPs. […] The toxicity of heme-albumin as a therapeutic has yet to be determined and was investigated at varying concentrations. […]

Caspase-3 = test: PCR quantification of caspase-3 gene expression in ARPE-19 cells; type: cell-based, human; conditions: 500 μg/mL heme-albumin, oxidative stress conditions
Procedure: (§2) PCR Quantification. Investigation of heme-albumin's effect on baseline expression of pro-inflammatory cytokines, compared to control, or heme-albumin's impact on gene expression in oxidative challenge conditions was analysed in an identical manner as described above. 1×10^6 ARPE-19 cells/well were seeded in a 6-well plate (n=6) and treated with 500 μg/mL of heme-albumin after 24 hours. Media was used as a baseline control. The samples were collected and isolated with Tryzol. After RNA quantification, the cDNA was made using SuperScript™ VILO™ cDNA Synthesis Kit. The total mass used to prepare the cDNA was 2500 ng. 50 ng of cDNA was used to perform the PCRs. Human IL-6, IL-1β, Caspase-3, and Caspase-9 were used as target genes for investigation of heme-albumin's impact on pro-apoptotic and inflammatory cytokine expression. Primer sequences for PCR are supplied in Table 1 below. GAPDH was used as a housekeeping gene.
(§3) Treatment of heme-albumin in oxidative stress conditions reduces pro-apoptotic and IL-6 gene expression. The impact of heme-albumin on pro-inflammatory and pro-apoptotic gene expression in oxidative stress conditions was determined and results are presented in FIG. 22.

HO-1 = test: Heme oxygenase 1 ELISA in ARPE-19 cells; type: cell-based, human
Procedure: as §1
Heme-Oxygenase 1 Expression is Increased by Heme-Albumin. The proposed therapeutic activity of heme-albumin is provided by induction of the HO-1 enzyme that, through catabolismof heme, generates the anti-inflammatory and antioxidant components CO and biliverdin. Expression of HO-1 by exposure to 500 μg/mL heme-albumin was quantified by ELISA, at both baseline and stressed conditions, as depicted in FIG. 19.

IL-1β [2] = test: PCR quantification of IL-1β gene expression in ARPE-19 cells; type: cell-based, human
Procedure: as §2, with “GAPDH was used as a housekeeping gene.” left out
(§4) To determine heme-albumin's impact on inflammatory signaling in unstressed conditions, PCR analysis was conducted on pro-inflammatory cytokines, IL-1β and IL-6. Cytokines were measured and compared to untreated control.
as §3

ARPE-19 cells [3] = test: Oxidative stress assay (DCFDA), H2O2 ROS model; type: cell-based, human; conditions: 100 μM H2O2, 24 h, 1000 μg/mL heme-albumin
Procedure: (§5) Oxidative Stress Assay. The ability of heme-albumin, PDA NPs and heme-albumin loaded PDA NPs to reduce oxidative stress in both inflammatory and ROS models in ARPE-19 cells was investigated using published techniques with slight modifications.^42 Cells were seeded at a density of 4×10^4 cells per well in a 96-well dark walled plate and left to adhere for 24 hours. Therapeutic agent heme-albumin, blank PDA NPs, or heme-albumin loaded PDA NPs were applied at varying concentrations (10-1000 μg/mL or 10-200 μg/mL for both nanoparticle groups, respectively) to the cells directly. In addition to the therapeutic, lipopolysaccharide (LPS) (10 μg/mL) or H2O2 (100 μM) were applied to the wells. After 24 hours of incubation with therapeutic and stressing agent, the cells were washed with 100 μL 1× dilution buffer, stained for 45 minutes with 100 μL of 10 μM DCFDA dye and washed again with dilution buffer before fluorescence at Ex/Em=485/535 nm was measured with the microplate reader.
Oxidative Stress Reduction in H2O2 ROS Model. With aging and metabolic fatigue, the imbalance that occurs within the posterior segment of the eye results in accumulation of ROS, causing tissue damage and overexpression of inflammatory cytokines and growth factors. The ability of heme-albumin, unloaded PDA NPs, and heme-albumin loaded PDA NPs to reduce oxidative stress from ROS was therefore investigated. […]

p38β MAPK = p38β MAPK immunofluorescent staining of ARPE-19 cells; type: cell-based, human; conditions: 500 μg/mL heme-albumin + 100 μM H2O2, 24 hours, vs H2O2 or basal alone
Procedure: p38β MAPK Immunofluorescent Staining. Changes in production of the p38β MAPK protein were measured by immunofluorescent staining. ARPE-19 cells were seeded in a 12-well plate before treatment with either 100 μM H2O2 or co-treatment with 100 μM H2O2 and 500 μg/mL of heme-albumin (n=4) Cells without either treatment were used as a negative control. After 24 hour incubation with treatments, cells were fixed with 0.1% Triton X-100 for 10 minutes, blocked with 5% BSA for 1 hr, and stained with p38 β MAPK primary antibody, in 1% BSA, overnight. Mouse IgG secondary antibody was added before DAPI staining.
Heme-Albumin induces p38β MAPK isoform expression.

IL-1β [4] = test: IL-1β ELISA in ARPE-19 cell lysate and media; type: cell-based, human
Procedure: as §1
Heme-Albumin impacts IL-1β expression with oxidative challenge. To investigate heme-albumin's impact on inflammatory signalling, ELISA quantification of expressed protein was conducted on pro-inflammatory cytokine, IL-1β. Cytokine expression of basal, oxidatively stressed and co-treatment of oxidative stress and heme-albumin in both cell lysate and media was evaluated. Results are shown in FIG. 23 as percent expression compared to control.

IL-6 = test: PCR quantification of IL-6 gene expression in ARPE-19 cells; type: cell-based, human
Procedure: as §2, with “GAPDH was used as a housekeeping gene.” left out
as §4, §3

Caspase-9 = test: PCR quantification of caspase-9 gene expression in ARPE-19 cells; type: cell-based, human; conditions: 500 μg/mL heme-albumin, oxidative stress conditions, p=0.0468
Procedure: as §2, §3

ARPE-19 cells [5] = test: Oxidative stress assay (DCFDA), LPS inflammatory model; type: cell-based, human; conditions: 10 μg/mL LPS, 24 h
Procedure: as §5
Oxidative Stress Reduction in Inflammatory Model. Chronic inflammation is a hallmark of dry AMD and plays a crucial role in disease progression to geographic atrophy and wet AMD. […] After 24 hrs, the cells were stained with 10 μM DCFDA stain for 45 minutes before fluorescence was measured at Ex/Em=485/535 nm. […]

[6] = 500 μg/mL heme-albumin without oxidative challenge, vs untreated control
[7] = 500 μg/mL heme-albumin, oxidative stress conditions

For “heme-albumin: heme bound to human serum albumin (HSA), synthesized protein complex, 2:1 heme:HSA”, which “increase in activated (phospho) p38 MAPK protein expression” value (phospho-p38 MAPK; compared to basal condition control) is on record?
The value was 200%.

What about the “phospho-p38 MAPK expression” value (phospho-p38 MAPK; compared to basal control, p<0.05) of the same substance?
The value was “significant increase”.

And the “cytotoxicity (cell viability, MTS)” value (ARPE-19 cells [1]; 100-2000 μg/mL heme-albumin)?
Its value is “no significant cytotoxicity”.

And the LC50 (ARPE-19 cells [1]; MTS)?
Its LC50 is greater than 2000 µg/mL.

And the “caspase-3 gene expression (PCR)” value (Caspase-3)?
Its value is “nor was there a statistical difference”.

What about the HO-1 expression (HO-1; 500 μg/mL heme-albumin + 100 μM H2O2, stressed conditions (challenged control 135.9±25.2)) of the same substance?
The HO-1 expression was 381.1 ± 96.33 pg/mL.

And the HO-1 expression (HO-1; 500 μg/mL heme-albumin, 24 h, baseline conditions (untreated control 118.9±14.9))?
Its HO-1 expression is 274.0 ± 44.3 pg/mL.

And the “increase in HO-1 concentration” value (HO-1; 500 μg/mL heme-albumin, compared to basal and stressed ARPE-19 cells)?
Its value is roughly 3 times.

What about the “IL-1β gene expression (PCR)” value (IL-1β [2]; [6]) of the same substance?
Its value is “do not induce additional cytokine expression; also recorded: did not induce significant additional pro-inflammatory protein expression”.

And the “IL-1β gene expression (PCR)” value (IL-1β [2]; [7])?
The value was “not a statistically significant expression”.

What about the “reduction of oxidative stress, H2O2 ROS model” value (ARPE-19 cells [3]) of the same substance?
Its value is 17±3%.

What about the “reduction of oxidative stress, H2O2 ROS model” value (ARPE-19 cells [3]; listed as Heme-albumin) of the same substance?
Its value is 17%.

And the “p38 MAPK expression (immunofluorescence)” value (p38β MAPK)?
Its value is “increased expression”.

What about the “p38 MAPK expression (immunofluorescence)” value (p38β MAPK; listed as Heme-albumin) of the same substance?
The value was “increase total p38 MAPK expression”.

And the “IL-1β expression in cell lysate (ELISA)” value (IL-1β [4]; co-treatment 500 μg/mL heme-albumin + 100 μM H2O2, vs basal control)?
Its value is “neither 100 μM H2O2 challenge or co-treatment with oxidative challenge or heme-albumin caused a statistically significant change”.

What about the “secreted IL-1β in media (ELISA)” value (IL-1β [4]; heme-albumin with oxidative challenge, vs untreated control, p<0.05) of the same substance?
The value was “statistically significant difference; also recorded: statistically significant (p<0.05) increase”.

What about the “IL-6 gene expression (PCR)” value (IL-6; [6]) of the same substance?
Its value is “do not induce additional cytokine expression; also recorded: did not induce significant additional pro-inflammatory protein expression”.

And the “IL-6 gene expression (PCR)” value (IL-6; [7])?
Its value is “not a statistically significant expression”.

And the “caspase-9 gene expression (PCR)” value (Caspase-9)?
Its value is “statistically significant difference; also recorded: statistically significant reduction”.

What about the “reduction of oxidative stress, LPS model” value (ARPE-19 cells [5]; maximum reduction at 1000 μg/mL heme-albumin) of the same substance?
The value was 22±10% and 22%.

And the “concentrations giving significant reduction in oxidative stress, LPS model” value (ARPE-19 cells [5]; p<0.05)?
Its value is “above 200 μg/mL”.
